Patent publication US20220226293A1, “TREATMENTS OF ANGIOEDEMA” (KALVISTA PHARMACEUTICALS LIMITED, priority 2019, published 2022)

Sequences of proteins named here, by UniProt entry; tags and fusion partners are left off. Residues count along the entry.
UniProt P03952, 20-390 partner limits assumed: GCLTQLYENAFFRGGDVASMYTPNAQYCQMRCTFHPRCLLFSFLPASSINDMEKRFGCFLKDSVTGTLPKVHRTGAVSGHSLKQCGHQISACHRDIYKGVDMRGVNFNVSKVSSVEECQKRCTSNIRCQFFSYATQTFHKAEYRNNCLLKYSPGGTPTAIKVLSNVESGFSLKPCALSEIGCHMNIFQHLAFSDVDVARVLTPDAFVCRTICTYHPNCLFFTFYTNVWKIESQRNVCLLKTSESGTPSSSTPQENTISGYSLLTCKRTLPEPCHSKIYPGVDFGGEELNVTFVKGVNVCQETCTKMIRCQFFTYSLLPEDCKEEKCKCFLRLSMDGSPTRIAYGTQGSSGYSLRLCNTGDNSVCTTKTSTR
UniProt P03952, 391-638 limits assumed: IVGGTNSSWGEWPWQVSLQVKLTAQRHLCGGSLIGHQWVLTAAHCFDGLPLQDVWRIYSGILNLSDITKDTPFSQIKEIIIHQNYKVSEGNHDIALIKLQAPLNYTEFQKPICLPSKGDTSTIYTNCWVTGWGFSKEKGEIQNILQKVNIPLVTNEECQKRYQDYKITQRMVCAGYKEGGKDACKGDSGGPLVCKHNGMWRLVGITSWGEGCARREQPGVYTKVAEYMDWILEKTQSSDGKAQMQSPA

Biological target: T1, plasma kallikrein catalytic activity (Homo sapiens, UniProt P03952)
T1 construct: from tissue; host or cells: undiluted plasma of healthy male study participants after oral dosing, stimulated ex vivo with dextran sulfate
Test: Phase 1 SAD / food effect: ex vivo PKa catalytic activity in DXS-stimulated undiluted plasma
Details: po, cohort 8 (600 mg oral), for 10 hr
Method: This study was a randomized, double-blind, placebo-controlled single ascending dose (SAD) and crossover studies for food effect and capsule/tablet formulations.
PD measurements were determined in dextran sulfate (DXS) stimulated undiluted plasma using a fluorogenic enzyme assay and capillary based HK cleavage immunoassay.
The time until appearance of detectable amidolytic enzyme activity in DXS-stimulated plasma (lag time) was calculated from the catalytic activity assay. The detection sensitivity of the rate of catalytic activity in plasma based on using a Spark (Tecan) fluorimeter is a fluorescence increase to reach 1ΔF unit/sec.

- inhibition at 600 mg: > 50%
Compound: COCc1nn(Cc2ccc(Cn3ccccc3=O)cc2)cc1C(=O)NCc1nccc(OC)c1F [Compound of Formula A, N-[(3-fluoro-4-methoxypyridin-2-yl)methyl]-3-(methoxymethyl)-1-({4-[(2-oxopyridin-1-yl)methyl]phenyl}methyl)pyrazole-4-carboxamide]
